# Reference: PubChem BioAssay AID493160 (Sanford-Burnham Center for Chemical Genomics, 2011)
# Chains of the proteins cited; added tags and fusions are not shown.
# UniProt Q2TB90, whole entry: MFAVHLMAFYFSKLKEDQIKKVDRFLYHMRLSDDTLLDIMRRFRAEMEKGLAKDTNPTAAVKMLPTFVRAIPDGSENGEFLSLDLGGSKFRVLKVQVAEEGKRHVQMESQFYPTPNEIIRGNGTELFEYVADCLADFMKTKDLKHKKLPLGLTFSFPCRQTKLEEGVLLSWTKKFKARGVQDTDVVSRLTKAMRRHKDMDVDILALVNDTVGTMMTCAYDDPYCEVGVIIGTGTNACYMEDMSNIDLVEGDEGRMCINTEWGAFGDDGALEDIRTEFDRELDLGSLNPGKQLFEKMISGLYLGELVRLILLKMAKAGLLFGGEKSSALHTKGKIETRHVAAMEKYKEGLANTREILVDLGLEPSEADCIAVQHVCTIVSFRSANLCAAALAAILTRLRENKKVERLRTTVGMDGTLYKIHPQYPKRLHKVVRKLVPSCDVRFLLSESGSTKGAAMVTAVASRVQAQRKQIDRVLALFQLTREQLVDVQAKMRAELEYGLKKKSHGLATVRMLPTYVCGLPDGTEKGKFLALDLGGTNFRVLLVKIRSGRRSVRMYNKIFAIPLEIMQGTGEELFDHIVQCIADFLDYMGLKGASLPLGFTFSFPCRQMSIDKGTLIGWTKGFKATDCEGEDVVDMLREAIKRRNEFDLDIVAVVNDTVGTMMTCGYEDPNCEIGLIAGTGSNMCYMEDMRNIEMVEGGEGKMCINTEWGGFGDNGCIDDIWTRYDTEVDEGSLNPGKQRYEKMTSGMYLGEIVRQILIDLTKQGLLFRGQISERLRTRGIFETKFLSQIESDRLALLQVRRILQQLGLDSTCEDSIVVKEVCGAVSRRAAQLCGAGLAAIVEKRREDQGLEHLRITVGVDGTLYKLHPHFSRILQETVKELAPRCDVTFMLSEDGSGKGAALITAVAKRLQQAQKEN
# This is a selection; strong and weak results do not stand in their true shares. Some salts or complexes appear as unconnected parts, following the source record. The source made the active and inactive calls.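 The calls were made as follows: active = inhibition above about 35% when tested at 20 µM (limit read from the data); inactive = the rest.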
# Target: Hexokinase HKDC1 (Homo sapiens) (UniProt Q2TB90)
# Experiment: blockers of human HKDC1 enzyme activity – biochemical, fluorescence, uHTS, primary screen (AID 493160);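 also: plate controls were DMSO wells with enzyme for no effect and DMSO wells lacking enzyme for full effect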
# Details: recombinant HKDC1, G6PDH/diaphorase resazurin coupled fluorescence; at 20 µM; stronger effect = higher value
row,SMILES,inhibition
1,CCc1ccc(OP(C)(=O)Nc2cccnc2)cc1 (stereo not drawn),inactive: -2.12%
2,CP(=O)(Oc1ccccc1)N1CCOC1=O (stereo not drawn),inactive: -1.64%
3,O=C(OCCCN1CCCC1)C(O)(c1ccccc1)C1CCCCC1 (stereo not drawn),inactive: -5.62%
4,COc1ccccc1OP(C)(=O)Nc1c(C)n(C)n(-c2ccccc2)c1=O (stereo not drawn),inactive: 0.96%
5,COc1ccc(OP(C)(=O)Nc2ccc(Br)cc2)cc1 (stereo not drawn),inactive: -1.01%
6,CCN(CC)CC(O)COC(=O)C(O)(c1ccccc1)C1CCCCC1 (stereo not drawn),inactive: -1.44%
7,CN(C)C(=O)c1c([N+](=O)[O-])cc([N+](=O)[O-])cc1[N+](=O)[O-],inactive: 18.1%
8,CP(=O)(Nc1ccc(Cl)cc1)Oc1ccc(F)cc1 (stereo not drawn),inactive: 2.57%
9,CC(C)(C)c1ccc(OP(C)(=O)O)cc1,inactive: 10.7%
10,COc1ccccc1OP(C)(=O)Nc1ccccc1Br (stereo not drawn),inactive: -6.01%
11,CP(=O)(OC12CC3CC(CC(C3)C1)C2)OC12CC3CC(CC(C3)C1)C2,inactive: -6.27%
12,CCOC(=O)c1ccc(NP(C)(=O)Oc2ccc(Cl)cc2)cc1 (stereo not drawn),inactive: -14.4%
13,Nc1ccc2c(ccc3cccnc32)n1.O=[N+]([O-])c1cc([N+](=O)[O-])c(O)c([N+](=O)[O-])c1,inactive: 4.3%
14,COc1ccc(OP(C)(=O)Nc2ccccc2Br)cc1 (stereo not drawn),inactive: -9.63%
15,COc1ccccc1OP(C)(=O)Nc1ccc(C)c(C)c1 (stereo not drawn),inactive: -2%
16,Cc1cc(C)cc(OP(C)(=O)Nc2cccc(C(F)(F)F)c2)c1 (stereo not drawn),inactive: 4.27%
17,O=C1C(O)=C([N+](=O)[O-])C(=O)C(O)=C1[N+](=O)[O-],inactive: -1.86%
18,CP(=O)(OCCOc1ccccc1)OCCOc1ccccc1,inactive: -4.89%
19,CP(=O)(Nc1ccc(Cl)cc1Cl)Oc1ccccc1 (stereo not drawn),inactive: -5.7%
20,CCCCCCCCCCCCCCCC1C[N+](C)(C)CCOP(C)(=O)O1 (stereo not drawn),inactive: 5.94%
21,CN(C)CCOC(=O)C(O)(c1ccccc1)C1CCCC1 (stereo not drawn),inactive: -10.1%
22,COc1ccc(OP(C)(=O)Nc2ccccn2)cc1 (stereo not drawn),inactive: 1.37%
23,COc1ccccc1OP(C)(=O)Nc1ccc(Br)cc1 (stereo not drawn),inactive: -4.89%
24,CCc1ccc(OP(C)(=O)O)cc1,inactive: -7.53%

row,SMILES,inhibition
1,COc1ccccc1OP(C)(=O)Nc1ccc(C)cc1C (stereo not drawn),inactive: 0.49%
2,CP(=O)(Nc1ccccn1)Oc1ccccc1 (stereo not drawn),inactive: -7.85%
3,O=[N+]([O-])c1cc([N+](=O)[O-])c(Nc2ccccn2)c([N+](=O)[O-])c1,inactive: 8.18%
4,Cc1c(NP(C)(=O)Oc2ccc(C(C)C)cc2)c(=O)n(-c2ccccc2)n1C (stereo not drawn),inactive: 1.45%
5,CC(C)c1ccc(OP(C)(=O)Nc2ccc(SC(F)(F)F)cc2)cc1 (stereo not drawn),inactive: -0.17%
6,CP(=O)(Nc1ccccc1F)Oc1ccccc1 (stereo not drawn),inactive: -2.31%
7,COc1ccc2c(c1O)-c1c(O)c(OC)cc3c1[C@H](C2)[N+](C)(C)CC3.O=[N+]([O-])c1cc([N+](=O)[O-])c([O-])c([N+](=O)[O-])c1[O-],inactive: 7.38%
8,O=C(OCCN1CCN(CCOCc2ccccc2)CC1)C(O)(c1ccccc1)c1ccccc1,inactive: 9.57%
9,O=C(OC1CN2CCC1CC2)c1ccc([N+](=O)[O-])cc1 (stereo not drawn),inactive: -7.74%
10,COc1ccc(OP(C)(=O)Nc2ccc(SC(F)(F)F)cc2)cc1 (stereo not drawn),inactive: 3.65%
11,CCOC(=O)c1ccc(NP(C)(=O)Oc2ccc(F)cc2)cc1 (stereo not drawn),inactive: -13.3%
12,O=[N+]([O-])c1cc([N+](=O)[O-])c(OC2CCCCC2O)c([N+](=O)[O-])c1 (stereo not drawn),inactive: 6.49%
13,CCCCCOc1ccc(NP(C)(=O)Oc2ccc(Cl)cc2Cl)cc1 (stereo not drawn),inactive: 5.48%
14,CP(=O)(Nc1ccccc1)Oc1ccc(F)cc1 (stereo not drawn),inactive: 0.18%
15,CCN(CC)CCCOC(=O)C(O)(c1ccccc1)C1CCCCC1 (stereo not drawn),inactive: -3.87%
16,Cc1c([N+](=O)[O-])cc([N+](=O)[O-])c(Br)c1[N+](=O)[O-],inactive: 2.99%
17,COc1ccc(NP(C)(=O)Oc2ccccc2OC)cc1 (stereo not drawn),inactive: 7.36%
18,CN(C)CCOC(=O)C(O)(c1ccccc1)C1CCCCC1 (stereo not drawn),inactive: 5.69%
19,COc1ccc(OP(C)(=O)Nc2cccc(Br)c2)cc1 (stereo not drawn),inactive: -0.13%
20,Cc1c(C(c2ccc3c(c2)OCO3)c2c(C)n(C)n(-c3ccccc3)c2=O)c(=O)n(-c2ccccc2)n1C.O=[N+]([O-])c1cc([N+](=O)[O-])c(O)c([N+](=O)[O-])c1,inactive: 3.13%
21,Cc1cc(-c2cccc3ccccc23)c(C)cn1.O=[N+]([O-])c1cc([N+](=O)[O-])c(O)c([N+](=O)[O-])c1,inactive: 2.6%
22,O=[N+]([O-])c1cc([N+](=O)[O-])c(NCC2CCS(=O)(=O)C2)c([N+](=O)[O-])c1 (stereo not drawn),inactive: -6.2%
23,O=[N+]([O-])c1ccc(OP2(=O)COCCO2)cc1 (stereo not drawn),inactive: -6.04%
24,CCOP(C)(=S)SCC(=O)NC(C)(CC)C(=O)O (stereo not drawn),inactive: -3.18%

row,SMILES,inhibition
1,CP(=O)(Nc1ccc(SC(F)(F)F)cc1)Oc1ccc(F)cc1 (stereo not drawn),inactive: 4.1%
2,Cc1ccccc1NP(C)(=O)Nc1ccccc1C,inactive: 1.54%
3,CP(=O)(Nc1ccc2c(c1)OCCO2)Oc1ccccc1 (stereo not drawn),inactive: -2.59%
4,O=[N+]([O-])c1cc([N+](=O)[O-])c(-n2nnc3ccccc32)c([N+](=O)[O-])c1,inactive: -1.12%
5,Cc1nc2ccc3ccccc3c2s1.O=[N+]([O-])c1cc([N+](=O)[O-])c(O)c([N+](=O)[O-])c1,inactive: 2.62%
6,O=[N+]([O-])c1cc([N+](=O)[O-])c(-c2cnn(-c3ccccc3)c2)c([N+](=O)[O-])c1,inactive: 17.5%
7,CCOC(=O)C(CC)C1=NC(C)(C)Cc2ccccc21.O=[N+]([O-])c1cc([N+](=O)[O-])c(O)c([N+](=O)[O-])c1 (stereo not drawn),inactive: 0.34%
8,O=[N+]([O-])c1cc([N+](=O)[O-])c(Nc2nnnn2CCO)c([N+](=O)[O-])c1,inactive: -1.7%
9,CC1=C2N=C(C=C3N=C(C(C)=C4[N-][C@@](C)([C@@H]5N=C1[C@](C)(CCC(=O)NC[C@@H](C)OP(=O)([O-])O[C@H]1[C@@H](O)[C@@H](n6cnc7cc(C)c(C)cc76)O[C@@H]1CO)[C@H]5CC(N)=O)[C@@](C)(CC(N)=O)[C@@H]4CCC(N)=O)[C@@](C)(CC(N)=O)[C@@H]3CCC(N)=O)C(C)(C)[C@@H]2CCC(N)=O.[C-]#N.[Co+3],inactive: -87.4%
10,CP(=O)(Nc1ccc(SC(F)(F)F)cc1)Oc1ccccc1 (stereo not drawn),inactive: 19.6%
11,CCCOc1ccc(NP(C)(=O)Oc2ccc(Cl)cc2)cc1 (stereo not drawn),inactive: -2.62%
12,COc1ccccc1OP(C)(=O)Nc1c(C)cccc1C (stereo not drawn),inactive: 0.8%
13,CN1CCCCC1COC(=O)C1(O)c2ccccc2CCc2ccccc21 (stereo not drawn),inactive: 0.17%
14,O=C(O)c1cccc(Nc2c([N+](=O)[O-])cc([N+](=O)[O-])cc2[N+](=O)[O-])c1,inactive: 6.85%
15,CC1=NCCc2c1[nH]c1ccccc21.O=[N+]([O-])c1cc([N+](=O)[O-])c(O)c([N+](=O)[O-])c1,inactive: -10.5%
16,Cc1cc(C)cc(OP(C)(=O)Nc2ccc(C)cc2C)c1 (stereo not drawn),inactive: -10.7%
17,CCOC(=O)c1ccc(NP(C)(=O)Oc2cc(C)cc(C)c2)cc1 (stereo not drawn),inactive: -2.25%
18,COc1ccccc1OP(C)(=O)Nc1cccc(Br)c1 (stereo not drawn),inactive: -2.28%
19,CP(=O)(Nc1cccc(Br)c1)Oc1ccccc1 (stereo not drawn),inactive: -10.8%
20,Cc1cc(C)cc(OP(C)(=O)Nc2ccccn2)c1 (stereo not drawn),inactive: -11.6%
21,Cc1ccc(C)c(NP(C)(=O)Oc2ccccc2)c1 (stereo not drawn),inactive: -5.02%
22,CCN(CC)CCCOC(=O)C(O)(c1ccccc1)c1ccccc1,inactive: -0.05%
23,Cc1cccc(C)c1OP(C)(N)=O (stereo not drawn),inactive: -1.25%
24,CC(C)(C)c1ccc(OP(C)(=O)Nc2ccc(SC(F)(F)F)cc2)cc1 (stereo not drawn),inactive: 2.75%

row,SMILES,inhibition
1,O=[N+]([O-])c1ccc2c(c1)C=Nc1ccccc1O2,inactive: 13.3%
2,O=[N+]([O-])c1cc([N+](=O)[O-])c(Nc2cccnc2)c([N+](=O)[O-])c1,inactive: 6.63%
3,COc1ccc(OP(C)(=O)Nc2cccc(F)c2)cc1 (stereo not drawn),inactive: 1.4%
4,COc1ccccc1OP(C)(=O)Nc1cc(Cl)ccc1C (stereo not drawn),inactive: -6.01%
5,Cc1cc(C)cc(OP(C)(N)=O)c1 (stereo not drawn),inactive: -1.21%
6,CCOC(=O)c1ccc(NP(C)(=O)Oc2ccccc2)cc1 (stereo not drawn),inactive: -10.4%
7,Cc1ccc(NP(C)(=O)Oc2ccccc2)c(C)c1 (stereo not drawn),inactive: -2.01%
8,COc1ccccc1OP(C)(=O)Nc1ccc(C)cc1 (stereo not drawn),inactive: -7.62%
9,COc1ccccc1OP(C)(=O)Nc1ccccc1 (stereo not drawn),inactive: -6.94%
10,CP(=O)(Nc1ccccc1Br)Oc1ccccc1 (stereo not drawn),inactive: -7.9%
11,CP(=S)(Nn1cnnc1)Oc1ccccc1 (stereo not drawn),inactive: 0.85%
12,Cc1cc(C)cc(OP(C)(=O)Nc2ccc(SC(F)(F)F)cc2)c1 (stereo not drawn),inactive: 0.46%
13,CCc1ccc(OP(C)(=O)N2CCN(c3ccc([N+](=O)[O-])cc3)CC2)cc1 (stereo not drawn),inactive: -2.81%
14,CP(=O)(NC(=O)Nc1ccccc1)Oc1ccccc1 (stereo not drawn),inactive: 6.06%
15,CP(=O)(Oc1ccccc1)OC(c1ccccc1)C(F)(F)F (stereo not drawn),inactive: 0.89%
16,Cc1cccc(C)c1OP(C)(=O)Nc1ccc(SC(F)(F)F)cc1 (stereo not drawn),inactive: 1.4%
17,CP(=O)(Nc1ccc(SC(F)(F)F)cc1)Oc1ccc(Cl)cc1 (stereo not drawn),inactive: 0.22%
18,CP(=O)(Nc1ccccn1)Oc1ccc(Cl)cc1 (stereo not drawn),inactive: -12.4%
19,CCOP(C)(=S)SCC(=O)NC(C)C(=O)O (stereo not drawn),inactive: -4.79%
20,CCOC(=O)c1ccc(NP(C)(=O)Oc2ccc(OC)cc2)cc1 (stereo not drawn),inactive: 5.53%
21,O=[N+]([O-])c1cc([N+](=O)[O-])c(O)c([N+](=O)[O-])c1.c1ccc(Oc2ccncc2)cc1,inactive: -2.81%
